The data set is described as follows: Blood (plasma) concentration of sesamin and episesamin in rats after oral administration of the mixture of sesamin-class compounds alone or simultaneously with a test substance (LC-MS/MS). As to conditions: Example 3, 10 mg/kg sesamin-class compounds plus 200 μmol/kg test flavonoid glycoside in 0.5% CMC suspension.

In the case of αG-hesperidin, the “change of Cmax of sesamin and episesamin when used in combination” value is “decrease”.

For the origin of these results see US8653040B2, “Compositions containing sesamin-class compound(s) and quercetin glycoside(s)” (Suntory Holdings Limited, priority 2007, dated 2014).
